Sequences of proteins named here, by UniProt entry; tags and fusion partners are left off.
UniProt P35368, whole entry: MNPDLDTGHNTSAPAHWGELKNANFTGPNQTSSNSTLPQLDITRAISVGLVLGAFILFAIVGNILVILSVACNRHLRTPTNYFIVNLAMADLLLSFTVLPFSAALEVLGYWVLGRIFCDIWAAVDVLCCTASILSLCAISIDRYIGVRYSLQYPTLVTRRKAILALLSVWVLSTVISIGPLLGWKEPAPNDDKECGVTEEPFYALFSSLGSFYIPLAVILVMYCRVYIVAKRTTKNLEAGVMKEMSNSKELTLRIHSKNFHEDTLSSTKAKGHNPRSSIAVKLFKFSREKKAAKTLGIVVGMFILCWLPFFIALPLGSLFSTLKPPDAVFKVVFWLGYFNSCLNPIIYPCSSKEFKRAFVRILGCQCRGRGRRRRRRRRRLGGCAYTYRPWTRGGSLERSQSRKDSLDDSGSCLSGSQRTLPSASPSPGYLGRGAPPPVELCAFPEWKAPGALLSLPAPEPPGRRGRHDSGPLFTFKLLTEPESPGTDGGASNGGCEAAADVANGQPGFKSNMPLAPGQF
UniProt P25100, whole entry: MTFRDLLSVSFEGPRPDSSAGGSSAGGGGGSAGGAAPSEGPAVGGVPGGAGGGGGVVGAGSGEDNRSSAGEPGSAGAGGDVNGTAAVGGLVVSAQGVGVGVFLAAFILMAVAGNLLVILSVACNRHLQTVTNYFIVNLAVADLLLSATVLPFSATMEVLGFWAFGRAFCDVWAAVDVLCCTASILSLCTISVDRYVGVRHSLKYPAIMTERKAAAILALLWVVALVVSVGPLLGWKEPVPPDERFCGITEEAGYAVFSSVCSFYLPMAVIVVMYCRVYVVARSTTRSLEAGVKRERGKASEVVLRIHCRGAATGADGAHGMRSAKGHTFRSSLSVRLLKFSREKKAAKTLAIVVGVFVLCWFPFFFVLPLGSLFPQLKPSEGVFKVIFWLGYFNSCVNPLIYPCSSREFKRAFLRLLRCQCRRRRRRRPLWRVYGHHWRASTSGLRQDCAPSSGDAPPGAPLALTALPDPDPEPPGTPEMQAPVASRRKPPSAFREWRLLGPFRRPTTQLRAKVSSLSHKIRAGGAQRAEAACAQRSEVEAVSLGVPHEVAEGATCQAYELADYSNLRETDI

According to article PMC8343220, “The selectivity of α‐adrenoceptor agonists for the human α1A, α1B, and α1D‐adrenoceptors” (Pharmacology Research & Perspectives, 2021):

How the values were obtained:
human α1A‐adrenoceptor [1] = target: T1, human α1A‐adrenoceptor (Homo sapiens, UniProt P35348); test: ERK1/2‐phosphorylation (Surefire Alphascreen), CHO‐α1A cells; format: cell-based
T1 construct: expressed in transfected cells; host or cells: CHO-K1
T1 sequence (P35348 1-466): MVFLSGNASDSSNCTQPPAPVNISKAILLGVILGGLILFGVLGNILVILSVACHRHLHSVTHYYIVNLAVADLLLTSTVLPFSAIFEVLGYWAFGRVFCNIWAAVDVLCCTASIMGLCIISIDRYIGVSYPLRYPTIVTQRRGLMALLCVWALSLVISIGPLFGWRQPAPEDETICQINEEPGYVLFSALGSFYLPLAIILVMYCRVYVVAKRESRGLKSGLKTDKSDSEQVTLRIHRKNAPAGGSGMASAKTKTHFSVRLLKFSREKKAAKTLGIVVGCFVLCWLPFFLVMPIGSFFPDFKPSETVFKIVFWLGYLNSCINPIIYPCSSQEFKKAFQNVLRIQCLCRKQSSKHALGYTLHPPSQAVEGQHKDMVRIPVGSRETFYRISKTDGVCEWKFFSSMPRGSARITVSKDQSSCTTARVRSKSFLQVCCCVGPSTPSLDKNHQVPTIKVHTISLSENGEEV

human α1A‐adrenoceptor [2] = target: T1, human α1A‐adrenoceptor; test: Intracellular free calcium mobilization, CHO‐α1A cells; format: cell-based
human α1A‐adrenoceptor [3] = target: T1, human α1A‐adrenoceptor; test: ^3H‐cAMP accumulation, CHO‐α1A cells; format: cell-based
human α1B‐adrenoceptor [4] = target: T2, human α1B‐adrenoceptor (Homo sapiens, UniProt P35368); test: Intracellular free calcium mobilization, CHO‐α1B cells; format: cell-based
T2 construct: expressed in transfected cells; host or cells: CHO-K1

human α1B‐adrenoceptor [5] = target: T2, human α1B‐adrenoceptor; test: ^3H‐cAMP accumulation, CHO‐α1B cells; format: cell-based
human α1B‐adrenoceptor [6] = target: T2, human α1B‐adrenoceptor; test: ^3H‐prazosin whole‐cell radioligand binding, CHO‐α1B cells
[7] = target: T3, human α1D‐adrenoceptor (full length) (Homo sapiens, UniProt P25100); test: Intracellular free calcium mobilization, CHO‐α1D cells; format: cell-based
T3 construct: human α1D‐adrenoceptor (full length) were used; expressed in transfected cells; host or cells: CHO-K1

human α1B‐adrenoceptor [8] = target: T2, human α1B‐adrenoceptor; test: ^3H‐cAMP accumulation in the presence of 10 μM forskolin, CHO‐α1B cells; format: cell-based
human α1A‐adrenoceptor [9] = target: T1, human α1A‐adrenoceptor; test: ^3H‐cAMP accumulation in the presence of 10 μM forskolin, CHO‐α1A cells; format: cell-based
[10] = target: T3, human α1D‐adrenoceptor (full length); test: ^3H‐prazosin whole‐cell radioligand binding, CHO‐α1D cells
human α1B‐adrenoceptor [11] = target: T2, human α1B‐adrenoceptor; test: ERK1/2‐phosphorylation (Surefire Alphascreen), CHO‐α1B cells; format: cell-based; conditions: for bi‐phasic responses the initial stimulatory part, read-out: ERK1/2‐phosphorylation Log EC50 (converted)
human α1A‐adrenoceptor [12] = target: T1, human α1A‐adrenoceptor; test: ^3H‐prazosin whole‐cell radioligand binding, CHO‐α1A cells
human α1B‐adrenoceptor [13] = target: T2, human α1B‐adrenoceptor; conditions: cited from earlier work
human α1A‐adrenoceptor [14] = target: T1, human α1A‐adrenoceptor; conditions: CHO‐α1A cells; given as log KD (negative); ligands marked ^a; ref Proudman et al., 2020; cited from earlier work
[15] = CHO‐α1A cells, 2–4 min, ^a bi‐phasic: initial stimulatory part, ^b also active in parent CHO cells, read-out: ERK1/2‐phosphorylation Log EC50 (converted)

In the case of `COc1ccccc1N1CCN(CCN2C(=O)CC3(CCCC3)CC2=O)CC1` [BMY7378], the EC50 (human α1A‐adrenoceptor [1]; [15]) is reported as 0.155 µM, the EC50 (human α1A‐adrenoceptor [2]; CHO‐α1A cells, given as log EC50 (negative), read-out: Intracellular calcium release Log EC50 (converted)) is reported as 0.0912 µM and the “cAMP accumulation Log EC50” value (human α1A‐adrenoceptor [3]; CHO‐α1A cells, 5 h) is reported as “No response”.

For `Cc1cccc(Cc2c[nH]cn2)c1C` [Detomidine], the EC50 (human α1A‐adrenoceptor [1]; [15]) was 0.00891 µM, the “Intracellular calcium release % ionomycin” value (human α1B‐adrenoceptor [4]) was 33.8 ± 1.7% and the “Log efficacy ratio KD /EC50” value (human α1B‐adrenoceptor [4]) was 1.84. For the same compound, the EC50 (human α1B‐adrenoceptor [4]; read-out: Intracellular calcium release Log EC50 (converted)) was 0.0324 µM, the EC50 (human α1B‐adrenoceptor [5]; read-out: cAMP accumulation Log EC50 (converted)) was 0.0126 µM and the “Intracellular calcium release % ionomycin” value (human α1A‐adrenoceptor [2]) was 47.7 ± 1.8%. For the same compound, the “Log efficacy ratio KD /EC50” value (human α1A‐adrenoceptor [2]) was 1.20, the Kd (human α1B‐adrenoceptor [6]; CHO‐α1B cells, given as log KD (negative), mean ± SEM) was 2.24 µM and the Kd (human α1B‐adrenoceptor [6]; Log KD, ^3H‐prazosin binding, CHO‐α1B cells, whole‐cell binding (from Table 1), given as log KD (negative numbers)) was 2.24 µM. The “Intracellular calcium release % Ionomycin at 100 µM” value [7] was 3.8 ± 0.8%, the “cAMP accumulation (in presence of forskolin) Fold increase” value (human α1B‐adrenoceptor [8]; fold increase of the forskolin response) was 1.57 ± 0.07 fold and the EC50 (human α1B‐adrenoceptor [8]; in presence of forskolin, read-out: cAMP accumulation (in presence of forskolin) Log EC50 (converted)) was 0.0129 µM. For the same compound, the EC50 (human α1A‐adrenoceptor [9]; CHO‐α1A cells, 10 μM forskolin, read-out: cAMP accumulation (in presence of forskolin) Log EC50 (converted)) was 0.0363 µM, the “cAMP accumulation (in presence of forskolin) Fold increase” value (human α1A‐adrenoceptor [9]; CHO‐α1A cells, fold increase of the forskolin response) was 1.95 ± 0.13 fold and the “Affinity selectivity ratio α1B vs α1D” value [10] was 2.3 fold. For the same compound, the EC50 (human α1A‐adrenoceptor [3]; CHO‐α1A cells, 5 h, read-out: cAMP accumulation Log EC50 (converted)) was 0.141 µM, the EC50 (human α1B‐adrenoceptor [11]) was 0.0676 µM and the “Affinity selectivity ratio α1A vs α1B” value (human α1A‐adrenoceptor [12]) was 15.8 fold. For the same compound, the “Affinity selectivity ratio α1A vs α1D” value (human α1A‐adrenoceptor [12]) was 6.9 fold and the Kd (human α1A‐adrenoceptor [12]; CHO‐α1A cells, given as log KD (negative), mean ± SEM) was 0.141 µM.

In the case of `CC(Cc1ccc(O)cc1)NCC(O)c1cc(O)cc(O)c1` (stereo not shown) [Fenoterol], the “Log efficacy ratio KD /EC50” value (human α1B‐adrenoceptor [4]) is reported as 2.36, the “Log efficacy ratio KD /EC50” value (human α1A‐adrenoceptor [2]) is reported as 1.22 and the “Affinity selectivity ratio α1B vs α1D” value [10] is reported as 2.8 fold. The “Affinity selectivity ratio α1A vs α1B” value (human α1A‐adrenoceptor [12]) was 24.0 fold and the “Affinity selectivity ratio α1A vs α1D” value (human α1A‐adrenoceptor [12]) was 8.7 fold.

In the case of `CC(CCc1ccccc1)NCC(O)c1ccc(O)c(C(N)=O)c1` (stereo not shown) [Labetolol], the EC50 (human α1A‐adrenoceptor [1]) is reported as 0.0309 µM, the “cAMP accumulation Log EC50” value (human α1B‐adrenoceptor [5]) is reported as “No response” and the EC50 (human α1A‐adrenoceptor [2]) is reported as 0.0126 µM. The Kd (human α1B‐adrenoceptor [6]; Log KD, ^3H‐prazosin binding) was 1.23 µM, the “Log KD α1B, ^3H‐prazosin whole cell binding” value (human α1B‐adrenoceptor [13]) was −5.91 ± 0.03 and the “cAMP accumulation (in presence of forskolin) Log EC50” value (human α1B‐adrenoceptor [8]; in presence of forskolin) was “No response”. For the same compound, the “Log KD α1A, ^3H‐prazosin whole cell binding” value (human α1A‐adrenoceptor [14]) was −7.33 ± 0.04, the EC50 (human α1A‐adrenoceptor [9]) was 0.0407 µM and the EC50 (human α1A‐adrenoceptor [3]) was 0.0355 µM.
